Where two headings read alike, the source gives them in different places.
Tests used:
[1] = biological target: cloned human κ opioid receptor (Homo sapiens, UniProt P41145); experiment: biochemical; type: biochemical
[2] = biological target: cloned human δ opioid receptor (Homo sapiens, UniProt P41143); experiment: biochemical
[3] = biological target: cloned human μ opioid receptor (Homo sapiens, UniProt P35372); experiment: biochemical
[4] = read-out: Ke κ, U69,593, inhibition of agonist-stimulated [35S]GTPγS binding, mean ±SEM of at least three experiments
[5] = read-out: Ke δ, DPDPE, inhibition of agonist-stimulated [35S]GTPγS binding, mean ±SEM of at least three experiments

Amino acid sequences for entries named in this document (tags omitted). A change or cut given only in a name is not applied to a line headed by its entry.
UniProt P41145: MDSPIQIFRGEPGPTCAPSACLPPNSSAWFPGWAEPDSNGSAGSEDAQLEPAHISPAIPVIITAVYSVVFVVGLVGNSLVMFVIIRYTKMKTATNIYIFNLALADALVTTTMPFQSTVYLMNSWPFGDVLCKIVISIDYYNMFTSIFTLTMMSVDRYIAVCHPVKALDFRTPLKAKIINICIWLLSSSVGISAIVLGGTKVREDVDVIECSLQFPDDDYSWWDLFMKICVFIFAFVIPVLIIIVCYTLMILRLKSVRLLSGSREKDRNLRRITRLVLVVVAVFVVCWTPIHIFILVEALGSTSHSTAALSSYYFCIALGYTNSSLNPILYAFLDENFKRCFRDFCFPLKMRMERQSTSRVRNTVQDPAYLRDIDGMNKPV
UniProt P35372, whole entry: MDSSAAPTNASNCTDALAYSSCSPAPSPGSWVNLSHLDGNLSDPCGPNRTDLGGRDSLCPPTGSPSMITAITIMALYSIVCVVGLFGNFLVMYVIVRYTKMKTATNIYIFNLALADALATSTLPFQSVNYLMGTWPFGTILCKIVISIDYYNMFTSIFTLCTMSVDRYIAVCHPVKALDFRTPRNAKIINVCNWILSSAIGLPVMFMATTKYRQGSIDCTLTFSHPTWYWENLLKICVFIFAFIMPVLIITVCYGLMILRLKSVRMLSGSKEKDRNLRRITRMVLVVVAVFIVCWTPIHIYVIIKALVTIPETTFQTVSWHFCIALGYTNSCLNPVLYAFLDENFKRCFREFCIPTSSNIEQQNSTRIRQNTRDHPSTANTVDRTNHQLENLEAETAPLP

SMILES | Kb [1, 4] | Kb [2, 5] | Kb [1] | Kb [3] | Kb [2] | further results
CC(C)[C@@H](CN1CC[C@@](C)(c2ccccc2)[C@@H](C)C1)NC(=O)[C@H]1Cc2ccc(O)cc2CN1 [Compound 3a, reference compound] | 0.024 nM | 442 nM | – | – | – | δ/κ ([1]; ratio of Ke values, selectivity for κ relative to δ): 18,400
CC(C)[C@@H](CN1CC[C@@](C)(c2cccc(F)c2)[C@@H](C)C1)NC(=O)[C@H]1Cc2ccc(O)cc2CN1 [Compound 3b, reference compound] | 0.01 nM | 249 nM | – | – | – | –
CC(C)[C@@H](CN1CCC(C)(c2cccc(O)c2)CC1)NC(=O)[C@H]1Cc2ccc(O)cc2CN1 [Compound 4a, (3R)-7-Hydoxy-N-[(1S)-1-{[4-(3-hydroxyphenyl)-4-methylpiperidin-1-yl]methyl}-2-methylpropyl]-1,2,3,4-tetrahydroisoquinoline-3-carboxamide] | – | – | – | – | – | functional profile in the [35S]GTPγS test (opioid receptors): pure opioid receptor antagonist; agonist activity in the [35S]GTPγS binding assay (opioid receptors; at 10 μM): no agonist activity
CC(C)[C@@H](CN1CCC(C)(c2cccc(F)c2)CC1)NC(=O)[C@H]1Cc2ccc(O)cc2CN1 [Compound 4b, (3R)-N-[(1S)-1-{[4-(3-fluorophenyl)-4-methylpiperidin-1-yl]methyl}-2-methylpropyl]-7-hydroxy-1,2,3,4-tetrahydroisoquinoline-3-carboxamide] | – | – | 0.18 ± 0.04 nM | 38 ± 6.4 nM | 1480 ± 350 nM | fold less potent than 3b as a κ opioid antagonist ([1]; ratio of κ Ke values vs 3b): 18 fold
CC(C)[C@@H](CN1CCC(c2ccccc2)CC1)NC(=O)[C@H]1Cc2ccc(O)cc2CN1 [Compound 4e, (3R)-7-Hydroxy-N-{(1S)-2-methyl-1-[(4-phenylpiperidin-1-yl]methyl]propyl}-1,2,3,4-tetrahydroisoquinoline-3-carboxamide] | – | – | – | 3.96 ± 1.1 nM | – | –
CC(C)[C@@H](CN1CCC(c2cccc(F)c2)CC1)NC(=O)[C@H]1Cc2ccc(O)cc2CN1 [Compound 4f, (3R)-N-[(1S)-1-{[4-(3-Fluorophenyl)piperidin-1-yl]methyl}-2-methylpropyl]-7-hydroxy-1,2,3,4-tetrahydroisoquinoline-3-carboxamide] | – | – | 0.023 ± 0.01 nM | 3.55 ± 1.1 nM | 128 ± 36 nM | –
